Data published in US20130095189A1, “COMPOSITION AND METHOD OF PHYTONUTRIENTS FOR METABOLIC PROGRAMMING EFFECTS” (priority 2011, published 2013).

What was measured:
[1] = test system: 1 month old (CCD-32sk) normal primary human skin fibroblast cells; assay type: cell-based; conditions: 1 month old cell model; 24 hrs; up to 100 μM
From the text: (§1) The resulting values are used for data analysis.

[2] = test system: Adult (142Br) normal primary human skin fibroblast cells; assay type: cell-based; conditions: adult cell model; 24 hrs; up to 100 μM
From the text: as §1

[3] = test system: 2 year old (CCD-1092sk) normal primary human skin fibroblast cells; assay: WST-1 cell viability / cytotoxicity assay, 2 year old cell model; conditions: 24 hrs, up to 100 μM

Measured: change in cell viability compared to control

catechin
No other significant changes: all assays above
